Biological target: Voltage-gated inwardly rectifying potassium channel KCNH2 (Homo sapiens, UniProt Q12809)
Assay: Inhibition of human ERG by patch clamp method

The chains behind the UniProt entries cited, without tags or fusion partners. Where a name states a change or a piece, a line headed by the entry shows the natural chain unless it says otherwise.
UniProt Q12809: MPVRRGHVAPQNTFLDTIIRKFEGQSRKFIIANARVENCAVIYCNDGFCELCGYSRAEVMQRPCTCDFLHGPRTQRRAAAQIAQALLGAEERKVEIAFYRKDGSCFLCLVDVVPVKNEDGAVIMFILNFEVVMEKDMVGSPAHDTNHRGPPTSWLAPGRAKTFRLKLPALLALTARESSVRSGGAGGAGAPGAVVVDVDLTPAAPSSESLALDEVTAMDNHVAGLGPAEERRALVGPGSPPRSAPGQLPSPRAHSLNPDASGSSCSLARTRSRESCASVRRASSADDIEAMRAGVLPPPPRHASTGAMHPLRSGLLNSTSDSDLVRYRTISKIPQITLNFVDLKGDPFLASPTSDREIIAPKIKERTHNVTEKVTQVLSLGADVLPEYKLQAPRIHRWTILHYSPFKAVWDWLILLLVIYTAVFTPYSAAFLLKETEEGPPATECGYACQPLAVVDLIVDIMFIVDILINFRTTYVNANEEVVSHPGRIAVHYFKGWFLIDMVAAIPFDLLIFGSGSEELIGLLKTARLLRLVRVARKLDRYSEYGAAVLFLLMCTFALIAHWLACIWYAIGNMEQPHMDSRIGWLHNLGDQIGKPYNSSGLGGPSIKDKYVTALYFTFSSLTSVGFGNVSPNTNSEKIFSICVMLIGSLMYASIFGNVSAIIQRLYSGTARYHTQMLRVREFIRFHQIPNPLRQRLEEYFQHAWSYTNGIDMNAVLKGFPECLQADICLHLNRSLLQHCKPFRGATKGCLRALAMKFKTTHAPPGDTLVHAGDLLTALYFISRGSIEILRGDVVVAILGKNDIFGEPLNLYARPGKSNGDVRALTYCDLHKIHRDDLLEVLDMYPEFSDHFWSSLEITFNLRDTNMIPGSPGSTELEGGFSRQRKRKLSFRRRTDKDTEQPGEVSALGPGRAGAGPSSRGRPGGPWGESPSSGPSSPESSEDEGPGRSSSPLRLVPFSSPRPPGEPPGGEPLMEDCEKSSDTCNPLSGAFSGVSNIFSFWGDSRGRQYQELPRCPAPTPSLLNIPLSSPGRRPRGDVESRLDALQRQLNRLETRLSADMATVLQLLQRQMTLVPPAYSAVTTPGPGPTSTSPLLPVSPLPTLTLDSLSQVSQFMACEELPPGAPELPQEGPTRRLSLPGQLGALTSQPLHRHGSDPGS

Question: With `C[C@H](C(=O)O)n1nc(Cn2cc3cc(OCC4CC4)c(Cl)cc3n2)c2ccccc2c1=O` as the molecule, how does the IC50 read?
Answer: Its IC50 is 35.8 µM.

From ChEMBL document CHEMBL5046225, “Discovery and Optimization of Orally Bioavailable Phthalazone and Cinnolone Carboxylic Acid Derivatives as S1P2 Antagonists against Fibrotic Diseases” (J Med Chem, 2021)
